{
  "source": "patent US5780303A",
  "about": "“Method and composition for treating thrombosis” (priority 1995, dated 1998)",
  "test_system": "platelets",
  "test": "Ex vivo platelet aggregation in canine coronary thrombosis model",
  "design": "species or system dog",
  "conditions": "3 mg/kg",
  "protocol": "For all ex vivo studies (see FIG. 3), control aggregation values were standardized to the percentages of light transmission observed in PRP and PPP samples (0% and 100%, respectively).\nAnimals were randomly assigned to two treatment groups: vehicle control (i.e., normal saline) or RGD peptides at various concentrations. Peptides were administered intra-atrially in both bolus and continuous injections. Each bolus injection consisted of 0.5 to 10 mg/kg and was administered 15 minutes before application of the current. A continuous infusion of the same peptide was then started immediately after completion of this initial injection. Animals received a 25 μg/kg/min to 200 μg/kg/min infusion. The anti-thrombotic effects of the peptides were monitored until 30 minutes after the occurrence of a persistent, occlusive thrombus or five hours after the initiation of electrical stimulation (whichever resulted first). […]\nPlatelet counts and ex vivo aggregation studies were performed one hour before and 1, 3, and 5 hours after application of anodal direct current. Samples of arterial blood were drawn into plastic syringes containing 3.8% trisodium citrate (giving a 1:10 final dilution) and platelet aggregation determined as described in Example V.\nPlatelet aggregation was also determined ex vivo at one, three, and five hours after current application. […]",
  "note": "Where “and” joins values, the source holds several entries; their conditions need not be identical. Equal entries are not always repeated.",
  "data": [
    {"substance": "R(Pen)GRGDWPCR [4R]", "values": [
      {"measurement": "ex vivo aggregation reduced relative to control", "setting": "one hour", "value": "20-58%"},
      {"measurement": "ex vivo aggregation reduced relative to control", "setting": "three and five hours", "value": "75-100% and 72-100%"}
    ]}
  ]
}
